# Apparent affinities of Ab-14 variants for a coronavirus HR2 peptide

The measurements come from Engelhart et al. 2022 (doi:10.1038/s41597-022-01779-4) through the FLAb antibody collection.

Target: peptide PDVDLGDISGINAS, taken from heptad repeat 2 (HR2) of SARS-CoV-2 spike.

Each scFv is VH, three GGGGS repeats, VL, as in the parent Ab-14, and differs from it in the CDRs of the light chain only.
VH: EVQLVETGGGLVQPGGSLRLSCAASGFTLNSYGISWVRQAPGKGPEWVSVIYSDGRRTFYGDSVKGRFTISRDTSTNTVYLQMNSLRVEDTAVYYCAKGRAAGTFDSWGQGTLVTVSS
VL: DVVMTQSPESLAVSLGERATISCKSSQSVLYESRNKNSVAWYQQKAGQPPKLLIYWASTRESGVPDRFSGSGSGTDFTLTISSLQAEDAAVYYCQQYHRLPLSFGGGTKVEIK

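Variants in AAYL50 differ from the parent at up to three CDR positions; double and triple changes were sampled at random. The assay is AlphaSeq: two haploid yeast populations carry antibody and antigen on their surface. Binding brings cells together so that they mate, and sequencing counts the barcode pairs among the diploids. The ratio of observed to expected reads was calibrated, replicate by replicate, on BCL2-family standards whose Kd was known from biolayer interferometry. The assay was run in three technical replicates.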

Each variant is given by its three light chain CDRs, as the data file delimits them; those of the parent are KSSQSVLYESRNKNSVA, WASTRES, QQYHRLPLS.
The read-out is the apparent dissociation constant on a log10 scale (nM): the lower, the stronger.
An entry "ND" has no value in the source: the pair was not observed among the diploids in that replicate. This suggests poor binding but is not conclusive.

CDR-L1,CDR-L2,CDR-L3,log10 Kd (nM) by replicate,control signals
WSSQSVLYESRNKNSVA,WASSRES,QQYFRLPLS,2.93 / 4.15 / 2.80,2 of 9 (5.05)
KSSQSVLYESRKKNSVA,HASTRPS,QQYHRLPLS,1.58 / 1.66 / 1.71,4 of 9 (4.67)
KSSQSVLYESRNKNSVC,WASTNES,QQYVRLPLS,ND / ND / 6.10,1 of 9 (3.31)
ASSQSMLYESRNKNSVA,WASTRES,QQYHRLPLM,1.62 / 1.93 / 2.24,1 of 9 (3.31)
KSSQSVLYESFNKNSTA,WASTRES,QQYHYLPLS,ND / ND / ND,0 of 9
KSSQSCLYCSRNKNSVA,WASTRES,QQYHFLPLS,1.99 / ND / ND,0 of 9
KSSQSMLYESRNKNSVA,WASYRES,QQYHRFPLS,2.02 / 2.37 / 2.10,0 of 9
KSSQSVLYTSRNKNSVA,WMSTRES,QRYHRLPLS,2.28 / 2.58 / 2.91,2 of 9 (3.99)
KSSQSVLDESRNKNSVA,WASDRES,QQYHRLPTS,ND / ND / ND,0 of 9
KSSQSVLYESRNTNSVA,WASTRDS,QQYIRLPLS,1.88 / 1.87 / 1.78,2 of 9 (4.56)
KSSQSVLPISRNKNSVA,WASTRES,QQYHRLPLS,ND / ND / ND,2 of 9 (3.30)
LSSQSVLYESRNKNSVY,WAMTRES,QQYHRLPLS,ND / ND / ND,0 of 9
KSSQSMLCESRNFNSVA,WASTRES,QQYHRLPLS,2.12 / 1.42 / 2.79,0 of 9
KSEQSVLYPSRNKNSVA,YASTRES,QQYHRLPLS,0.63 / 0.87 / 0.83,5 of 9 (5.91)
KSSQSVLYEIRNKNSVA,WAFTRES,QQYHRCPLS,ND / ND / 4.73,2 of 9 (3.43)
KSSQSVLYESRNKNSVA,WASTRES,QWYHRLILS,ND / 3.50 / ND,2 of 9 (3.91)
KSSQSVLYESRNQNSGA,WASTRES,QQYHRLPLS,ND / ND / ND,1 of 9 (4.30)
KSSESVLYERRNKNSVA,WASTREV,QQYHRLPLS,1.31 / 1.35 / 1.48,2 of 9 (3.90)
KSKQSVLYESTNKNSVA,WASTRES,QQYHRLPSS,ND / ND / 3.60,1 of 9 (3.90)
KSSQSVLEESRNKNSVA,WASTRES,QSYHRLSLS,0.10 / 0.49 / 0.23,1 of 9 (3.96)
LSSTSVLYESRNKNSVA,WAVTRES,QQYHRLPLS,4.55 / 4.72 / 3.76,2 of 9 (3.99)
KSSVSVLYESRNKNSVA,WASTCES,QQYHRLPLY,ND / 3.18 / ND,5 of 9 (4.33)
KSSQSVLYEKRVKNSQA,WASTRES,QQYHRLPLS,4.11 / ND / ND,5 of 9 (4.23)
NSSQSVLYESRNKNSVA,WASSRES,QQVHRLPLS,3.67 / ND / 2.83,0 of 9
KSSESVLYESRNCNSVA,WASTRES,QQYHRLPYS,1.99 / 1.78 / 2.36,4 of 9 (4.59)
KSSQSVLYYSRNKNSVA,WASTRES,QQYHRLPLS,0.95 / 1.20 / 1.09,3 of 9 (3.25)
KSSQNVLYESRNKNSVA,QASTRMS,QQYHRLPLS,-0.01 / 0.27 / 0.05,8 of 9 (4.86)
KSSQSVLYESRNKNGVA,CASTRES,RQYHRLPLS,ND / 4.75 / ND,3 of 9 (4.24)
KSSQSVSYESRNKNSVA,WASTRES,EQYWRLPLS,1.63 / 2.01 / 1.49,2 of 9 (4.31)
WSSQSVLYESRDKNSVA,WASTRES,QQYHRLRLS,2.80 / 3.55 / 2.75,1 of 9 (3.59)
KSSQSVLYESRNKNSVS,WTSTRES,QQYHRLPLE,ND / ND / ND,0 of 9
LSSQSVLYESRNKNSVA,WQSTRES,QQYHQLPLS,ND / 3.26 / 4.78,3 of 9 (4.20)
GSSQSVLYESRNKNSVA,WASTRTS,QQYHRLPWS,ND / 4.86 / ND,2 of 9 (3.07)
KSSQSVLYESWNKNSVA,WWATRES,QQYHRLPLS,4.93 / 4.89 / ND,4 of 9 (4.89)
KSWQSVLSESRNKNSVA,WASTRES,QQYHRHPLS,2.14 / 1.97 / 2.24,1 of 9 (3.52)
KSSQSVLYESREKNSVA,WKSTHES,QQYHRLPLS,ND / 3.45 / ND,1 of 9 (4.05)
KSSQSHLYESRNKNQYA,WASTRES,QQYHRLPLS,ND / ND / ND,0 of 9
KSSQSVLYESRNKNSVA,WASTAES,QQYHRLPLS,2.86 / ND / 2.63,0 of 9
KSSQSVLFESRNKLSVL,WASTRES,QQYHRLPLS,ND / 4.34 / ND,2 of 9 (4.14)
KRSQSVSYESRNKNSVA,WASTRES,QQYHRLGLS,3.29 / ND / 2.31,1 of 9 (2.05)
KNSQSVLYESRNKNSVA,WASTRES,QQYHRLPEG,1.86 / 1.92 / 1.67,0 of 9
KPSQSVLYESANKNSVA,NASTRES,QQYHRLPLS,-0.16 / 0.18 / -0.05,1 of 9 (4.08)

5 of these entries, quoted again:

CDR-L1	CDR-L2	CDR-L3	log10 Kd (nM) by replicate	control signals
KSSVSVLYESRNKNSVA	WASTCES	QQYHRLPLY	ND / 3.18 / ND	5 of 9 (4.33)
KSSQSVLFESRNKLSVL	WASTRES	QQYHRLPLS	ND / 4.34 / ND	2 of 9 (4.14)
KSSQNVLYESRNKNSVA	QASTRMS	QQYHRLPLS	-0.01 / 0.27 / 0.05	8 of 9 (4.86)
KSSESVLYERRNKNSVA	WASTREV	QQYHRLPLS	1.31 / 1.35 / 1.48	2 of 9 (3.90)
KNSQSVLYESRNKNSVA	WASTRES	QQYHRLPEG	1.86 / 1.92 / 1.67	0 of 9

Nonspecific signal, from three strains lacking the peptide, appeared in 18% of pairings of library AAYL50, centred on 4.19 (5% of these signals below 2.99); values are not corrected for it. For each scFv, signals with the empty controls are counted beside the result, with their mean in brackets.